One compound from patent US10213415B2, “Compounds as opioid receptor modulators” (JANSSEN PHARMACEUTICA NV, priority 2004, dated 2019) can be followed below.

The chains behind the UniProt entries cited, without tags or fusion partners.
UniProt P35372, whole entry: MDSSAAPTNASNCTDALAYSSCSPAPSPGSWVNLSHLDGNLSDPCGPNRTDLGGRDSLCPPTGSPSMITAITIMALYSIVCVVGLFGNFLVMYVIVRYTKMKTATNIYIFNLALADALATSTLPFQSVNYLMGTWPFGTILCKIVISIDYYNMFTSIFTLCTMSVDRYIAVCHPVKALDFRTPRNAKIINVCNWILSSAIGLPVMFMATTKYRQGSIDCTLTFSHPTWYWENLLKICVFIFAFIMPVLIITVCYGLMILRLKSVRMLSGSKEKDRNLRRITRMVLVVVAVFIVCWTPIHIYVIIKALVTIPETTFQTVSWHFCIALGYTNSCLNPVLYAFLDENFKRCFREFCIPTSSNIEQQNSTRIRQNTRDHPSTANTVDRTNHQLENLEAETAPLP
UniProt P32300, whole entry: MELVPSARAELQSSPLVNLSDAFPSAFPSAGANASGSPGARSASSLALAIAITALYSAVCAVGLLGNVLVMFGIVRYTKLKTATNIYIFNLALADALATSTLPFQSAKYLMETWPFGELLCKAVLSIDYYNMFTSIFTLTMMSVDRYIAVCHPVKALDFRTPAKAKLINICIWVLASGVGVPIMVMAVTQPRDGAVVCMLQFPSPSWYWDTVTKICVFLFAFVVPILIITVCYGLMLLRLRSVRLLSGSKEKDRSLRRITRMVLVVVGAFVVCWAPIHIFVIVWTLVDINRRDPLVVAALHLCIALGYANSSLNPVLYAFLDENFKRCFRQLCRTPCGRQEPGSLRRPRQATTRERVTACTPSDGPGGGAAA

Experiment [1] deals with male CD-1 mice. In words: In Vivo Assay: Stress-Induced Entire GI Tract Transit (MEGIT, MEGIT-NES, MEGIT-RS). Details: species or system mouse. Conditions: dose 20 p.o., restraint stress. The procedure: Methods: The animals used in these studies are male CD-1 mice, ave. wt. ˜30 g. Procedure: Mice were housed in LAM under 12 h/12 h light/dark cycle, food & water ad lib. On the day before the experiments, the mice assigned to the “acclimated” (non-stressed) control group were placed into individual wire mesh-bottomed cages, provided food and water ad lib. The acclimated control group was in this new environment for 16-18 hrs prior to beginning the test. On the day of the experiment, mice assigned to experimental groups were housed in home cages were transported to procedure room and remain in their home cages until the start of the transit portion of the study. […] One hour after administration of carmine, the fecal pellet output of each animal was recorded. […] The number of mice that excreted a carmine-containing fecal pellet at the end of each hour post carmine administration was recorded, until all mice had excreted carmine in a fecal pellet or the end of 6 hrs post carmine administration, whichever occurred first. […] The mouse entire GI tract (MEGIT) transit test can thus be done in mice that are all acclimated (non-stressed), in which case the data are expressed as % control (vehicle only), or in mice that are exposed to NES or RS, in which cases the data are expressed as % of the vehicle treated NES or RS group.

Experiment [2] concerns the target human mu opioid receptor (Homo sapiens, UniProt P35372). In words: Human Mu Opioid Receptor Binding Assay (CHO membranes, 3H-Damgo). Conditions: read-out: hKi μ.
The target in experiment [3] is delta opioid receptor (NG108-15 cell membranes) (Mus musculus, UniProt P32300). In words: Delta Opioid Receptor Functional Assay: [35S]GTPγS Binding in NG108-15 Cell Membranes, Version 2. The procedure:
NG108-15 cell membranes were purchased from Applied Cell Sciences (Rockville, Md.). 8 mg/ml of membrane protein suspended in 10 mM TRIS-HC pH 7.2, 2 mM EDTA, 10% sucrose.
Membranes were maintained at 4-8° C. A portion (1 ml) of membranes was added into 10 ml cold binding assay buffer. The assay buffer contained 50 mM Tris, pH 7.6, 5 mM MgCl2, 100 mM NaCl, 1 mM DTT and 1 mM EGTA. The membrane suspension was homogenized with a Polytron for 2 times and centrifuged at 3000 rpm for 10 min. The supernent was then centrifuged at 18,000 rpm for 20 min. The pellet was saved in a tube and 10 ml assay buffer was added into the tube. The pellet and buffer were mixed with a Polytron.
The pellet membranes (75 μg/ml) were preincubated with SPA (10 mg/ml) at 25° C. for 45 min in the assay buffer. The SPA (5 mg/ml) coupled with membranes (37.5 μg/ml) was then incubated with 0.1 nM [^35S] GTPγS in the same Tris buffer containing 100 μM GDP in total volume of 200 μl. Increasing concentrations of receptor agonists were used to stimulate [^35S] GTPγS binding. The basal binding was tested in the absent agonists and no specific binding was tested in the present 10 μM unlabeled GTPγS. The data were analyzed on a Top counter.
[formula] % Inhibition=(% stimulation by 1 μM SNC80−% stimulation by 1 μM SNC80 in presence of test compound)×100/(% Stimulation by 1 μM SNC80−100) % of Basal=(stimulate−non specific)*100/(basal−non specific). EC50 values were calculated using GraphPad Prism.
Background: GTPγS resists hydrolysis and so accumulates on activated G proteins.

In the case of `C[C@@H](c1nc(-c2ccccc2)c[nH]1)N(Cc1cccc(C(=O)O)c1)C(=O)[C@@H](N)Cc1ccc(C(N)=O)cc1`, the “MEGIT-RS entire GI transit 5 hr (% RS)” value in experiment [1] was found to be 112.5 % RS. Also, in experiment [2], the Ki turned out to be 3.27 nM. The “DOR GTP-binding Assay v2 (% I)” value in experiment [3] (% inhibition of agonist-stimulated GTPγS binding) came to 63.51%. Further, the EC50 (commonly the concentration needed to bring the measured effect to its halfway point) in experiment [3] (read-out: DOR GTP-binding Assay_v2_ EC50, [35S]GTPγS) was 1000 nM.
